Values quoted from earlier work as cited in paper PMC9039622 (Frontiers in Pharmacology, 2022).

Conditions: ref Strang et al., 2018; cited from earlier work

Question: For `CO[C@]12CC[C@@]3(C[C@@H]1[C@](C)(O)C(C)(C)C)[C@H]1Cc4ccc(O)c5c4[C@@]3(CCN1)[C@H]2O5`, which “respiratory depression relative to BUP” value is on record?
Answer: Its value is 10 fold.
